This is an account of results in patent EP2974743B1, “CYCLODEXTRIN CARRIER-BASED ARTEANNUIN COMPOUND CONJUGATE AND PREPARING METHOD THEREOF” (KPC Pharmaceuticals, Inc., priority 2012, dated 2014).

A short description of the series: solubility in water. The format is physicochemical. From the text:
Also, the cyclodextrin carrier-based arteannuinoid compound is absorbed in merely a small amount when passing through stomach and small intestine of a human body, which is mainly absorbed by the large intestine, with a property of releasing in straight cecum. Therefore, the cyclodextrin carrier-based arteannuinoid compound according to the present disclosure can effectively enter the body of a patient, improving the bioavailability.

By solubility is commonly meant the concentration that dissolves in the medium under given conditions. The low end stands for little dissolved substance, the high end for much dissolved substance. With “mono-6-artesunate-β-cyclodextrin conjugate [Example 1]”, the solubility is listed as 65 mg/mL.
